# Source: patent US8568736B2, “Polypeptide derivatives of parathyroid hormone (PTH)” (The General Hospital Corporation, priority 1999, dated 2013)
# Assays:
# Assay type in all cases: cell-based
# [1] = biological target: T1, truncated human PTH-1 receptor, hΔNt (Homo sapiens, UniProt Q03431); assay: cAMP stimulation in COS-7 cells transiently transfected with truncated receptor hDeINt
# T1 construct: expressed in transfected cells; host or cells: COS-7, transient, pcDNA-1 plasmid derived from HK-WT
# T1 sequence (Q03431 with tags, fused parts or gaps limits assumed): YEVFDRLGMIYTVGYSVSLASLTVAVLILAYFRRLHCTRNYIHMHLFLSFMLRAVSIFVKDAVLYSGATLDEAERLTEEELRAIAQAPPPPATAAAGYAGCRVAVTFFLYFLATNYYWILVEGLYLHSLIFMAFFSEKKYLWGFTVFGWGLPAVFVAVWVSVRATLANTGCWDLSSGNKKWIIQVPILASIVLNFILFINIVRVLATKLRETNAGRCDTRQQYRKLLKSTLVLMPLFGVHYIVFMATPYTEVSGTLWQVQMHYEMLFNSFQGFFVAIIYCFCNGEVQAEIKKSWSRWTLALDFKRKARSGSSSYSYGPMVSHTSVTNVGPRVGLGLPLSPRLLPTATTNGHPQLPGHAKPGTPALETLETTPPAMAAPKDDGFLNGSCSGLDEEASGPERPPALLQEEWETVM
# Experimental: (§1) COS-7 cells were transfected in 24-well plates when the cells were 85 to 95% of confluency using 200 ng of plasmid DNA that was purified by cesium chloride/ethidium bromide gradient centrifugation for each well. Assays were conducted 72 to 96 hours after transfection.
# (§2) Stimulation of cells with peptide analogs was performed in 24-well plates. Cells were rinsed with 0.5 mL of binding buffer and treated with 200 μL of cAMP assay buffer (Dulbecco's modified Eagle's medium containing 2 mM 3-isobutyl-1-methylxanthine, 1 mg/mL bovine serum albumin, 35 mM Hepes-NaOH, pH 7.4) and 100 μL of binding buffer containing varying amounts of peptide analog (final volume=300 μL). The medium was removed after incubation for 1 h at room temperature, and the cells were frozen (−80° C.), lysed with 0.5 mL 50 mM HCl, and refrozen (−80° C.). The cAMP content of the diluted lysate was determined by radioimmunoassay. Where possible, cAMP EC50 and Maximum response values were determined using nonlinear regression (see below).
# (§3) All calculations were performed using Microsoft Excel. […] The predicted response (yp) for a given dose (x) of peptide was calculated using the following equation: yp=Min+[(Max−Min)/(1+(EC50/x)^slope)]. […] The statistical significance between two data sets was determined using a one-tailed Student's t-test, assuming unequal variances for the two sets.
# WT hPTH-1 receptor = biological target: T2, WT hPTH-1 receptor (Homo sapiens, UniProt Q03431); assay: cAMP stimulation in COS-7 cells transiently transfected with WT hPTH-1 receptor
# T2 construct: encoding the intact hPTH-1 receptor (HK-WT); expressed in transfected cells; host or cells: COS-7, transient, pcDNA-1 plasmid
# T2 sequence (Q03431 27-593): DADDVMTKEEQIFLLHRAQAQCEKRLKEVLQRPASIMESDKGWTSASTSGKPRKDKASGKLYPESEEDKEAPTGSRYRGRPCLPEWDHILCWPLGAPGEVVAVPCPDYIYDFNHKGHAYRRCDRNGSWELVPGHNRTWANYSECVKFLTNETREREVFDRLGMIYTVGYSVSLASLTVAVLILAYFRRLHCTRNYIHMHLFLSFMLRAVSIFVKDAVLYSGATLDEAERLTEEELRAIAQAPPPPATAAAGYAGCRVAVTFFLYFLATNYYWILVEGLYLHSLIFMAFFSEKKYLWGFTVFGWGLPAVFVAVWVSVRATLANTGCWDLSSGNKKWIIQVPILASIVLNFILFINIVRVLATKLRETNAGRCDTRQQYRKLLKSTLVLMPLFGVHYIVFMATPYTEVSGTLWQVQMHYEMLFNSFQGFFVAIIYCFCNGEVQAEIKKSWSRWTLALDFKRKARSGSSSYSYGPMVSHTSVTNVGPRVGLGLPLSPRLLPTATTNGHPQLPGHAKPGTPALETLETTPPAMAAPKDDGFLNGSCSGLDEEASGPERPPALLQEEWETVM
# Experimental: as §1, §2, §3
# [2] = biological target: T3, rat PTH-1 receptor (endogenous, ROS 17/2.8 cells) (Rattus norvegicus, UniProt P25961); assay: cAMP response in osteoblastic ROS 17/2.8 cells
# T3 construct: The rat osteoblastic cell line ROS 17/2.8; endogenous in cells; host or cells: ROS 17/2.8 rat osteoblastic cells
# T3 sequence (P25961 27-591): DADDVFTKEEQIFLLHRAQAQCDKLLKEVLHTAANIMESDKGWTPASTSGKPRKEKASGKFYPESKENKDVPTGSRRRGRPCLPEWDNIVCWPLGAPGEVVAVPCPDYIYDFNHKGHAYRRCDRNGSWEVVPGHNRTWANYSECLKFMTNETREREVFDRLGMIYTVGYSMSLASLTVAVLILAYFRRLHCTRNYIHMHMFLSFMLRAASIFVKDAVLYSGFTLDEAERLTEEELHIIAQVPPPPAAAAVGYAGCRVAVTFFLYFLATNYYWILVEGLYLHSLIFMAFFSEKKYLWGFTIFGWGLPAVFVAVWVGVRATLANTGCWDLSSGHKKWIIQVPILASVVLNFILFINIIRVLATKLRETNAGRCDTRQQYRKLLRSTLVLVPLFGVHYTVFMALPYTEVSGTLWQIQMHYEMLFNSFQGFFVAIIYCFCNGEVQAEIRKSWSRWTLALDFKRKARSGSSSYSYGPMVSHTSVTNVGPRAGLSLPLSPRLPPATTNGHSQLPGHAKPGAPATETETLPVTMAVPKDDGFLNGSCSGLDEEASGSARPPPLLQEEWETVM
# Experimental: (§4) The rat osteoblastic cell line ROS 17/2.8 (Majeska, R. J., et al, Endocrinology 107:1494-1503 (1980)) expresses endogenous PTH-1 receptors at levels of 80,000 per cell and the human osteoblastic cell line, SAOS-2, express endogenous PTH-1 receptors at levels of ˜30,000 per cell.
# as §2, §3
# [3] = biological target: T4, human PTH-1 receptor (endogenous, SAOS-2 cells) (Homo sapiens, UniProt Q03431); assay: cAMP response in osteoblastic SAOS-2 cells
# T4 construct: the human osteoblastic cell line, SAOS-2, express endogenous PTH-1 receptors; endogenous in cells; host or cells: SAOS-2 human osteoblastic cells
# T4 sequence (Q03431 27-593): T2 sequence (Q03431 27-593)
# Experimental: as §4, §2, §3
# PTH-1 receptor = biological target: T5, PTH-1 receptor (Homo sapiens, UniProt Q03431); assay: cAMP stimulation in HKRK-B7 cells (LLC-PK1 stably transfected with hPTH-1 receptor); design: expressed in transfected cells; host or cells: LLC-PK1 porcine kidney cells, clone HKRK-B7; details: Emax constrained to ±1 SD of rPTH(1-34) response at 100 nM
# T5 sequence (Q03431 27-593): T2 sequence (Q03431 27-593)
# Description: Stably transfected derivatives of the porcine kidney cell line LLC-PK1, HKRK-B7 (Takasu, H., et al., J. Bone Miner. Res. 14:11-20 (1999)) and hPR2-20, express the human PTH-1 and human PTH-2 receptors respectively. The HKRK-B7 LLC-PK1 cell line expresses the hPTH-1 receptor at ˜1×10^6 receptors/cell (Takasu, H., et al., J. Bone Miner. Res. 14:11-20 (1999)), and the hPR2-22 LLC-PK1 cell line expresses the hPTH-2 receptor at ˜0.8×10^6 receptors/cell (provided by H. Takasu and F. R. Bringhurst, Endocrine Unit, Massachusetts General Hospital).
# Stimulation of cells with peptide analogs was performed in 24-well plates. […] The cAMP content of the diluted lysate was determined by radioimmunoassay. Where possible, cAMP EC50 and Maximum response values were determined using nonlinear regression (see below).
# Intracellular cAMP accumulation may be measured as described by Abou-Samra et al., J. Biol. Chem. 262:1129, 1986) or other methods known to those of skill in the art. Intracellular cAMP is extracted by thawing the cells in 1 ml of 50 mM HCl and analyzed by a specific radioimmunoassay using an anti-cAMP antibody (e.g., Sigma, St. Louis, Mo.). […] The supernatant is removed and the bound radioactivity is counted in a gamma-counter (Micromedic). […]
structure (smiles),measurement,setting,value
"CC[C@H](C)[C@H](NC(=O)[C@H](CCC(=O)O)NC(=O)[C@H](CO)NC(=O)[C@@H](NC(=O)[C@@H](N)CO)C(C)C)C(=O)N[C@@H](CCC(N)=O)C(=O)N[C@@H](CC(C)C)C(=O)N[C@@H](CCSC)C(=O)N[C@@H](Cc1c[nH]cn1)C(=O)N[C@@H](CC(N)=O)C(=O)N[C@@H](CC(C)C)C(=O)NCC(=O)N[C@@H](CCCCN)C(=O)N[C@@H](Cc1c[nH]cn1)C(=O)N[C@@H](CC(C)C)C(=O)N[C@@H](CC(N)=O)C(=O)N[C@@H](CO)C(=O)N[C@@H](CCSC)C(=O)N[C@@H](CCC(=O)O)C(=O)N[C@@H](CCCNC(=N)N)C(=O)N[C@H](C(=O)N[C@@H](CCC(=O)O)C(=O)N[C@@H](Cc1c[nH]c2ccccc12)C(=O)N[C@@H](CC(C)C)C(=O)N[C@@H](CCCNC(=N)N)C(=O)N[C@@H](CCCCN)C(=O)N[C@@H](CCCCN)C(=O)N[C@@H](CC(C)C)C(=O)N[C@@H](CCC(N)=O)C(=O)N[C@@H](CC(=O)O)C(=O)N[C@H](C(=O)N[C@@H](Cc1c[nH]cn1)C(=O)N[C@@H](CC(N)=O)C(=O)N[C@@H](Cc1ccc(O)cc1)C(N)=O)C(C)C)C(C)C [[Y34]hPTH(1-34), [Tyr^34]human (h)PTH(1-34)NH2, reference compound]",EC50,"[1]; hDeINt truncated receptor, cAMP",29.1 ± 15.3 µM
same,Emax,"[1]; hDeINt, Emax constrained to peptide #7 (20 μM) response",238 ± 20 picomole/well
same,Emax,WT hPTH-1 receptor,226 ± 30 picomole/well
same,EC50,[2],0.0003 µM
same,Emax,[2]; ROS 17/2.8 cells,340 ± 55 picomole/well
same,Emax,[3],307 picomole/well
same,Emax,PTH-1 receptor,270 picomole/well
